Source: ChEMBL document CHEMBL4354838, “Synthesis and in Vitro and in Vivo Biological Evaluation of Tissue-Specific Bisthiazole Histone Deacetylase (HDAC) Inhibitors” (J Med Chem, 2020)

Protein sequences, listed by entry. Tags and fused reporters are not part of them.
UniProt Q13547, whole entry: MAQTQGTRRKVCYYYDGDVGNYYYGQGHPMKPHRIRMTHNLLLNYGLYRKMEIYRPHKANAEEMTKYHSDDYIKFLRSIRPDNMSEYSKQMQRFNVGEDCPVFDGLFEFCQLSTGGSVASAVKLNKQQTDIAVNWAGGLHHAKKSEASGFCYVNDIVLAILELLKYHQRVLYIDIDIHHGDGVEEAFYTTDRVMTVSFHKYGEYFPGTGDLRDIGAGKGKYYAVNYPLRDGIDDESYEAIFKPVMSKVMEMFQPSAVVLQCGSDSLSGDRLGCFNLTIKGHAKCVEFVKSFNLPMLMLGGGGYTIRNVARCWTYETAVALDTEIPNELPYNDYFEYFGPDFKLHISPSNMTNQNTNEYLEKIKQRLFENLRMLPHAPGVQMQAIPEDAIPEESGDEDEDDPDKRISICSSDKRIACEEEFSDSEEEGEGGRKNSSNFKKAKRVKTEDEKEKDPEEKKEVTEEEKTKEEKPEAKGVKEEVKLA

Target: Histone deacetylase 1 (Homo sapiens, UniProt Q13547)
Assay: biochemical
Format: cell-based

IC50: 279 nM
SMILES: C[C@@H](NC(=O)c1nc(-c2nccs2)sc1C1CC1)c1ccc(C(=O)NO)cc1
